Reference: patent US6355473B1, “Yeast cells having mutations in stp22 and uses therefor” (Cadus Pharmaceutical Corp., priority 1998, dated 2002)

By UniProt entry, the sequences of proteins in these tests, tags left out.
UniProt P32245, whole entry: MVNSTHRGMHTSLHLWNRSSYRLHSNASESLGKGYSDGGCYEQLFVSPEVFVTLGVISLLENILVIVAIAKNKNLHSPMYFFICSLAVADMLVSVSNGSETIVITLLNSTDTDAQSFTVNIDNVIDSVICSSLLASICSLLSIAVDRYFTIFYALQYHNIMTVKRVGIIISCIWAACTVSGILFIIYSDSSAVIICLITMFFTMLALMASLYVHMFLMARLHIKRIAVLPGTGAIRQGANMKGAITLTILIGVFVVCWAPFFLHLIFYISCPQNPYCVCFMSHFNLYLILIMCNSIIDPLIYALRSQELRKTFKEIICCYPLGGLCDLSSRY

Target: T1, human melanocortin receptor 4 (hMCR4) (Homo sapiens, UniProt P32245)
T1 construct: expressed in transfected cells; host or cells: Saccharomyces cerevisiae CY9438 (wild type) and CY12201 (stp22), co-expressing rat GαsD229S
Experiment: FUS1-lacZ β-galactosidase induction assay in yeast expressing hMCR4
Assay type: cell-based
Details: native hMCR4, stp22 mutant vs wild type

change of EC50 value, stp22 versus wild type: several-fold decrease
increase of specific ligand-induced levels of β-galactosidase activity, stp22 versus wild type (rat GαsD229S): approximately 2 fold
Substance: NDP-α-MSH
